By UniProt entry, the sequences of proteins in these tests, tags left out. Where a name states a change or a piece, a line headed by the entry shows the natural chain unless it says otherwise.
UniProt O00481: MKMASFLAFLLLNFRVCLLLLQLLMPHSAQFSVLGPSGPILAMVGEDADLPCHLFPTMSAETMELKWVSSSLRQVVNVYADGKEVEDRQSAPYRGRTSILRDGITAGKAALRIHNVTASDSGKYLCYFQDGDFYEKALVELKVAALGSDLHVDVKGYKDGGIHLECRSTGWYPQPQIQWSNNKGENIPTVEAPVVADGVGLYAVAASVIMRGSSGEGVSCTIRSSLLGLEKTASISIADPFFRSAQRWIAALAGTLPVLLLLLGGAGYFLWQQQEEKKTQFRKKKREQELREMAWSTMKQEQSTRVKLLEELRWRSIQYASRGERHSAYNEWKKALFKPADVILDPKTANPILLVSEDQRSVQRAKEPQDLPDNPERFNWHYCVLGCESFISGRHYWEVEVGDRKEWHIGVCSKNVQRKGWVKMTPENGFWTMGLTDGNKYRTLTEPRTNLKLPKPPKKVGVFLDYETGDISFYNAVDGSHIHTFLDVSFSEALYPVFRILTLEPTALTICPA

According to ChEMBL document CHEMBL4007426, “Phosphinophosphonates and Their Tris-pivaloyloxymethyl Prodrugs Reveal a Negatively Cooperative Butyrophilin Activation Mechanism” (J Med Chem, 2017):

Target: Butyrophilin subfamily 3 member A1 (Homo sapiens) (UniProt O00481)
Assay: Potency index, ratio of HMBPP EC50 to compound EC50 for BTN3A1 in human Vgamma9Vdelta2 T cells assessed as induction of T effector cells mediated K562 cell lysis

| Ratio EC50 | SMILES |
| --- | --- |
| 0.00022 | CC(C)=CCCP(=O)(CP(=O)(OCOC(=O)C(C)(C)C)OCOC(=O)C(C)(C)C)OCOC(=O)C(C)(C)C (stereo not drawn) |
| 0.0057 | C/C(=C\CCP(=O)(CP(=O)(OCOC(=O)C(C)(C)C)OCOC(=O)C(C)(C)C)OCOC(=O)C(C)(C)C)CO (stereo not drawn) |

| SMILES | Ratio EC50 |
| --- | --- |
| C/C(=C\CCP(=O)([O-])CP(=O)([O-])[O-])CO.[Na+].[Na+].[Na+] | 3.9e-05 |
